Experimental data: US20090233957A1, “(-)-BELOXEPIN AND METHODS FOR ITS SYNTHESIS AND USE” (priority 2008, published 2009)

Amino acid sequences for entries named in this document (tags omitted).
UniProt P31645, whole entry: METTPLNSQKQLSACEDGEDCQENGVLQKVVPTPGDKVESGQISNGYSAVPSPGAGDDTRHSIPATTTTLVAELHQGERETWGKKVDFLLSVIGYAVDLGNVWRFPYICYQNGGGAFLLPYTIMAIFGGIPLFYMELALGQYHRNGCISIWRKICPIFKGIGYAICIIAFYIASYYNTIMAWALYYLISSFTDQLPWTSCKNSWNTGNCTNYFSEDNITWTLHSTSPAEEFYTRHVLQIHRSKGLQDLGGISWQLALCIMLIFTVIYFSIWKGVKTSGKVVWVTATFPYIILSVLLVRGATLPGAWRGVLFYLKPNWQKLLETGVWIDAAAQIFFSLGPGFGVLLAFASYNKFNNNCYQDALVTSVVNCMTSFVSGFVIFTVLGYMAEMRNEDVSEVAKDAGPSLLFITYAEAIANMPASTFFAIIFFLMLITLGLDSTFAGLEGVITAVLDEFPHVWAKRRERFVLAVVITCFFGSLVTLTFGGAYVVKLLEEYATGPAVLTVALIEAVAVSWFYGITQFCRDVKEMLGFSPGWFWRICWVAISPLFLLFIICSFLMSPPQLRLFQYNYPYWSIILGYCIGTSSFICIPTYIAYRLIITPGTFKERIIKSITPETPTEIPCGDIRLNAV
UniProt Q01959, whole entry, species assumed: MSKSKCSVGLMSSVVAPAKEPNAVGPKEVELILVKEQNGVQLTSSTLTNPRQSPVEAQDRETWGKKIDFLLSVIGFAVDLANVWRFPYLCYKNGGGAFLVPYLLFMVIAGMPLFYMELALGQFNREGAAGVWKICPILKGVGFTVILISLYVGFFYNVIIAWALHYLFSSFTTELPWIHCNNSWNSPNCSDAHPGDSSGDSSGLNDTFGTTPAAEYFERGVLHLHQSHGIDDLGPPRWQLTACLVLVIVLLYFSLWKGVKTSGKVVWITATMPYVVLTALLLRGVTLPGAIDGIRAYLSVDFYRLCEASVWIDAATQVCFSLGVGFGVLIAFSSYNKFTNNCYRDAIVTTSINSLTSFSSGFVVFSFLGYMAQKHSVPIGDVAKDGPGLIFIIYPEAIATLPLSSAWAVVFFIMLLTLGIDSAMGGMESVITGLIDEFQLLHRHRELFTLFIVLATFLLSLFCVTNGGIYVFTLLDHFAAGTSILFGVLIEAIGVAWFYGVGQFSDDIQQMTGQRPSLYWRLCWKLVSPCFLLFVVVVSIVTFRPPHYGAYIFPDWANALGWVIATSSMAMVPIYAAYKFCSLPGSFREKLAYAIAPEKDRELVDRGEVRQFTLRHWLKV

Assays:
[1] = molecular target: T1, human serotonin transporter (hSERT) (Homo sapiens, UniProt P31645); conditions: at 10 μM
[2] = molecular target: T2, dopamine transporter (DAT) (Homo sapiens, UniProt Q01959); conditions: at 10 μM
[3] = molecular target: T1, human serotonin transporter (hSERT); experiment: biochemical; conditions: read-out: SERT inhibition
[4] = molecular target: T2, dopamine transporter (DAT); experiment: biochemical; conditions: read-out: DAT inhibition

Cc1cccc2c1Oc1ccccc1C1(O)CCN(C)CC21 (racemic) [(±)-beloxepin, cis-1,2,3,4,4a,13b-hexahydro-2,10-dimethyldiben-[2,3:6,7]oxepino[4,5c]pyridine-4a-ol]]
SERT inhibition [1]: 27%
DAT inhibition [2]: 16%
inhibition at 10 µM [3]: 27%
inhibition at 10 µM [4]: 16%
